The supplement of paper PMC11150407
The strong results were mostly taken out for another list; the other results follow.

The molecules below were run on MOLM1 and UCSD/AML1 (averaged) (assay: cell viability relative to DMSO control (POC); higher = less growth inhibition). Details: 1 µM; 72 h.
Description: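 Primary viability screen in the 3q26 EVI1-high AML cell lines MOLM1 and UCSD/AML1 (1.5e3 cells/well, 384-well), compounds at 1 uM for 72 h. ATP CellTiter-Glo read-out given as percent of viable cells over DMSO control (POC), averaged over duplicates. DMSO was the negative control and 5 uM etoposide the positive control. This mapping covers the MicroSource Spectrum and Selleck anticancer libraries (drug names).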

Row | SMILES | cell viability
1 | COc1c2ccccc2nc2occc12 | 95.2%
